Results taken from US20090054439A1.

Sequences of proteins named here, by UniProt entry; tags and fusion partners are left off.
UniProt O43614, whole entry: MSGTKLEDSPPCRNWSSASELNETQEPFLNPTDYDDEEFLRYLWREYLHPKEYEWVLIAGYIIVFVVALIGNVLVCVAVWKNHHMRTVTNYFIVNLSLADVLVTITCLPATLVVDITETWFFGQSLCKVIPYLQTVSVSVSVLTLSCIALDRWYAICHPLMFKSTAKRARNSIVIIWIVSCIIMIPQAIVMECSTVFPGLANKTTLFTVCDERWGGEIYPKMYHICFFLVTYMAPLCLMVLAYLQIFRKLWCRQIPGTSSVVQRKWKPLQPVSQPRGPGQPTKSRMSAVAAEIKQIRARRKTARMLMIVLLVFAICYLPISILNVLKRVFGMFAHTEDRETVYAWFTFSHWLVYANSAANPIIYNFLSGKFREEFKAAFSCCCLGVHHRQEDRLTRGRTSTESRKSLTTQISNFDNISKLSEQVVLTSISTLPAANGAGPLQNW

Biological target: human orexin 2 receptors (Homo sapiens, UniProt O43614)
Experiment: in vitro binding: displacement of radioiodinated orexin A bound to human orexin 2 receptors expressed in CHO cells (membranes)
Details: read-out: IC50 OX 2; displacement of radioiodinated orexin A (100 pM), CHO cell membranes, 30 minutes at 25° C.
Protocol: They have in particular been tested with regard to their effects. […] This method consists in studying the displacement of radioiodinated orexin A bound to human orexin 2 receptors expressed in CHO cells. The test is carried out on membranes in an incubation buffer of 50 mm Hepes, 1 mM MgCl2, 25 mm CaCl2, 0.025% NaN3, 1% bovine serum albumin (BSA) and 100 pM of ligand for 30 minutes at 25° C. The reaction is halted by filtering and washing on a Whatman GF/C filter. The nonspecific binding is measured in the presence of 10^−6 M of human orexin B. The IC50 (concentration which inhibits the binding of the radioiodinated orexin A to its receptors by 50%) values are low, less than 300 nM, in particular less than 100 nM and more particularly less than 30 nM.

`COc1ccc(S(=O)(=O)N(CC(C)O)c2c(Cc3c(F)cccc3F)cccc2OC)cc1OC` (stereo not shown) gave an IC50 of 0.037 µM.
